Earlier results, collected in patent US20110097274A1, “Carbon-11 and fluorine-18 labeled radioligands for positron emission tomography (PET) imaging for the brain serotonin transporters” (priority 2002, published 2011).

Amino acid sequences for entries named in this document (tags omitted).
UniProt P31652, whole entry: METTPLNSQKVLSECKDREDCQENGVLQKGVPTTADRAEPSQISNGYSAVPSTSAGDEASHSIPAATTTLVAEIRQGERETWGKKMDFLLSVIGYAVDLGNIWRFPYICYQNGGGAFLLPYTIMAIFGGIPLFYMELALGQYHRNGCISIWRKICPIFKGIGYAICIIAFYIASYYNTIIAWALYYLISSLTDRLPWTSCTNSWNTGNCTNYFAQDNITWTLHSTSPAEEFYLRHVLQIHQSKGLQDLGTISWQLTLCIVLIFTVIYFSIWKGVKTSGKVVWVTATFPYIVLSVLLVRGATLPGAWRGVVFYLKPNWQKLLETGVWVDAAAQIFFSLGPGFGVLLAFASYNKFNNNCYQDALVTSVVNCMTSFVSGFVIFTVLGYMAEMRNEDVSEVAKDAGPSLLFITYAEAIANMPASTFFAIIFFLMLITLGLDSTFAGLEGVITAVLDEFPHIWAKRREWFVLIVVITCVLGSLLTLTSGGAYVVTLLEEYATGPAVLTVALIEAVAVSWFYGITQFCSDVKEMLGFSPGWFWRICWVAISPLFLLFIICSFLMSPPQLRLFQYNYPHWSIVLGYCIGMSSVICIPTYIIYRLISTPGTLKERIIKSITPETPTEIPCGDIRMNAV

Target: 5-HT uptake (Rattus norvegicus, UniProt P31652)
Settings: Shank et al., 1988; read-out: C50 for 5-HT uptake blockade; cited from earlier work

CSc1ccc(C2CN3CCCC3c3ccccc32)cc1 (single isomer, unassigned; (+)) [McN 5652, (+)-6β-(4-methylthiophenyl)-1,2,3,5,6α,10β-hexahydropyrrolo[2,1-a]isoquinoline]
IC50: 400 pM
